Assay results: ChEMBL document CHEMBL5030536, “Subtle Chemical Changes Cross the Boundary between Agonist and Antagonist: New A3 Adenosine Receptor Homology Models and Structural Network Analysis Can Predict This Boundary” (J Med Chem, 2021)

Molecular target: Adenosine receptor A2a (Homo sapiens, UniProt P29274)
Experiment: Displacement of [3H]CGS21680 from recombinant human A2A adenosine receptor expressed in HEK293 cells at 10 uM incubated for 60 mins by liquid scintillation counting method relative to control
Assay type: cell-based

inhibition: 20%
SMILES: CNc1ncnc2c1ncn2[C@@H]1SC[C@@H](N)[C@H]1O
